Values of other authors in patent publication US20150283139A1, “CANCER TREATMENT METHOD” (SmithKline Beecham (Cork) Limited, priority 2004, published 2015).

Conditions: cited from earlier work

trastuzumab: large (Mr 148,000) monoclonal antibody
crossing of the blood-brain barrier (in vivo): does not cross the blood-brain barrier
access to the CNS (preclinical xenograft models and patients with CNS metastases): remains excluded from the CNS
